Reference: BigSolDB 2.1

## CCCc1nn(C)c2c(=O)[nH]c(-c3cc(S(=O)(=O)N4CCN(C)CC4)ccc3OCC)nc12.O=C(O)CC(O)(CC(=O)O)C(=O)O
In PEG-400, 293.2 K
  solubility (mole fraction): 0.0023
In PEG-400, 298.2 K
  solubility (mole fraction): 0.00252
In PEG-400, 303.2 K
  solubility (mole fraction): 0.00293
In PEG-400, 308.2 K
  solubility (mole fraction): 0.00366
In PEG-400, 313.2 K
  solubility (mole fraction): 0.00416
In water, 293.2 K
  solubility (mole fraction): 9.91e-05
In water, 298.2 K
  solubility (mole fraction): 0.000125
In water, 303.2 K
  solubility (mole fraction): 0.000135
In water, 308.2 K
  solubility (mole fraction): 0.000169
In water, 313.2 K
  solubility (mole fraction): 0.000191
